Assay results: BigSolDB 2.1

C=C[C@]1(C)C[C@@H](OC(=O)CSC(C)(C)CNC(=O)[C@H](N)C(C)C)[C@]2(C)[C@H](C)CC[C@]3(CCC(=O)[C@H]32)[C@@H](C)[C@@H]1O.O=C(O)C(O)C(O)C(=O)O
solubility (mole fraction)
Conditions | in acetone | in ethanol | in isopropanol | in n-butanol | in water
278.15 K | 0.000752 | 0.00132 | 0.000527 | 0.000913 | 0.000131
283.15 K | 0.000818 | 0.00208 | 0.000599 | 0.00102 | 0.000136
288.15 K | 0.000921 | 0.00269 | 0.000727 | 0.00114 | 0.000143
293.15 K | 0.00116 | 0.0031 | 0.000847 | 0.00129 | 0.000148
298.15 K | 0.00137 | 0.00373 | 0.00106 | 0.00141 | 0.000154
303.15 K | 0.00172 | 0.0048 | 0.00141 | 0.00162 | 0.000161
308.15 K | 0.00228 | 0.0059 | 0.00163 | 0.00184 | 0.000166
313.15 K | 0.00304 | 0.00766 | 0.00207 | 0.00225 | 0.000171
318.15 K | 0.0041 | 0.0103 | 0.0027 | – | 0.000173
323.15 K | – | – | 0.00348 | – | 0.000175
328.15 K | – | – | 0.00442 | – | –
333.15 K | – | – | 0.00606 | – | –
